Measured values reported in publication PMC10279719 (2023).

Target: T1, PEAK1^IDR1 phosphorylated by Src (human, UniProt Q9H792 1082-1746, phosphotyrosine at 1107 (by Src in vitro, MS/MS); biotin (EZ-Link NHS-PEG4-Biotin))
T1 chain: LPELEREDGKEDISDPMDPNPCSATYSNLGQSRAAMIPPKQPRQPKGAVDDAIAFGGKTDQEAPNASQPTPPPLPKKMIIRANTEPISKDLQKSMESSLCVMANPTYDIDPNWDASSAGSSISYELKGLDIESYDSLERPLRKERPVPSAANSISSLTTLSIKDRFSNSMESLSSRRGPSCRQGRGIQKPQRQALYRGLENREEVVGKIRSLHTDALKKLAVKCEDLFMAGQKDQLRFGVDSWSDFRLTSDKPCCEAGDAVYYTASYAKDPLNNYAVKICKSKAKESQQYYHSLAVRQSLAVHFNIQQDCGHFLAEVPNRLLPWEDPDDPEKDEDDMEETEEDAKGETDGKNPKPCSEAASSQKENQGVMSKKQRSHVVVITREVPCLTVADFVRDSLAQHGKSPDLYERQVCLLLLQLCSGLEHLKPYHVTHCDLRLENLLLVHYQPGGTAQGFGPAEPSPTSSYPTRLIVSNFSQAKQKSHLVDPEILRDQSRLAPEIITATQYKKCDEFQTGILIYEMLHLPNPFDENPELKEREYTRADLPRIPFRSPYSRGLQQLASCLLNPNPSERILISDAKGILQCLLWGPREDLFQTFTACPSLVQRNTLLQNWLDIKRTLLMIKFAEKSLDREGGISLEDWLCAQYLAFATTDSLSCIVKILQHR
Test: SPR

- Kd: 13.3 µM
B1: Grb2 SH2 domain (Grb2^SH2) (domain or fragment)
chain: WFFGKIPRAKAEEMLSKQRHDGAFLIRESESAPGDFSLSVKFGNDVQHFKVLRDGAGKYFLWVVKFNSLNELVDYHRSTSVSRNQQIFLRDIE
modifications: biotin (EZ-Link NHS-PEG4-Biotin) where immobilised for SPR
